Sequences of proteins named here, by UniProt entry; tags and fusion partners are left off. A change or cut given only in a name is not applied to a line headed by its entry.
UniProt P35218: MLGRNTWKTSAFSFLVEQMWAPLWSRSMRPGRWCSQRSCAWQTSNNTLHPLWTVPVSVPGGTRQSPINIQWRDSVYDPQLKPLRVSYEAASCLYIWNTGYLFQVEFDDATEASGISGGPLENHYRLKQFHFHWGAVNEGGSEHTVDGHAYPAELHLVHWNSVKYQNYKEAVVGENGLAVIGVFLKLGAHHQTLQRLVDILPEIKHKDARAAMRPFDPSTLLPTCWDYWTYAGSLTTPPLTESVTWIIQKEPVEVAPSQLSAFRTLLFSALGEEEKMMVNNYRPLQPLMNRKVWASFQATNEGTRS
UniProt P43166: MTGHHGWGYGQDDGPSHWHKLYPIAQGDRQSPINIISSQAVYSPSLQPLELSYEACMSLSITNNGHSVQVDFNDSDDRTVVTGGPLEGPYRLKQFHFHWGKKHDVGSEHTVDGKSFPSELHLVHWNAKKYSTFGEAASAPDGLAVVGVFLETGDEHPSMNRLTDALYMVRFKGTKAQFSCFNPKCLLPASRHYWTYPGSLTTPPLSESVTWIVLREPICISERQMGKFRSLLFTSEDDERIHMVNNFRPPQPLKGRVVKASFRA

According to BindingDB's records for doi:10.1016/j.bmcl.2008.03.051 (Universita Degli Studi Di Firenze, 2008):

Assays:
[1] = molecular target: Carbonic anhydrase 5A, mitochondrial (Homo sapiens, UniProt P35218)
Carbonic anhydrase 7 = Carbonic anhydrase 7 (Homo sapiens, UniProt P43166)

NS(=O)(=O)c1cc(C(=O)O)c(NCc2ccco2)cc1Cl [4-chloro-2-[(furan-2-ylmethyl)amino]-5-sulfamoylbenzoic acid]
Ki [1]: 0.499 µM | Ki (Carbonic anhydrase 7): 0.513 µM
